Experiment: Cytotoxicity against RG cells (unknown origin) assessed as inhibition of cell growth incubated for 1 hr by MTT assay
Assay type: functional, cell-based

Structure (SMILES): CC[C@H](C)[C@H](NC(=O)CN)C(=O)NCC(=O)N[C@@H](C)C(=O)N[C@H](C(=O)N[C@@H](CC(C)C)C(=O)N[C@@H](CCCCN)C(=O)N[C@H](C(=O)N[C@@H](CC(C)C)C(=O)N[C@H](C(=O)N[C@H](C(=O)NCC(=O)N[C@@H](CC(C)C)C(=O)N1CCC[C@H]1C(=O)N[C@@H](C)C(=O)N[C@@H](CC(C)C)C(=O)N[C@H](C(=O)N[C@@H](CO)C(=O)N[C@@H](Cc1c[nH]c2ccccc12)C(=O)N[C@H](C(=O)N[C@@H](CCCCN)C(=O)N[C@@H](CCCNC(=N)N)C(=O)N[C@@H](CCCCN)C(=O)N[C@@H](CCCNC(=N)N)C(=O)N[C@@H](CCC(N)=O)C(=O)N[C@@H](CCC(N)=O)C(N)=O)[C@@H](C)CC)[C@@H](C)CC)[C@@H](C)O)[C@@H](C)O)C(C)C)C(C)C [MELITTIN]
- IC50: 1560 nM

Reference: ChEMBL document CHEMBL5584231, “Rational design of a new short anticancer peptide with good potential for cancer treatment” (Eur J Med Chem, 2024)
